From patent publication US6635771B2, “N-benzhydryl indole compounds” (Wyeth, priority 2001, dated 2003)

Target: T1, cPLA2 (Homo sapiens, UniProt P47712)
T1 sequence (P47712 1-749): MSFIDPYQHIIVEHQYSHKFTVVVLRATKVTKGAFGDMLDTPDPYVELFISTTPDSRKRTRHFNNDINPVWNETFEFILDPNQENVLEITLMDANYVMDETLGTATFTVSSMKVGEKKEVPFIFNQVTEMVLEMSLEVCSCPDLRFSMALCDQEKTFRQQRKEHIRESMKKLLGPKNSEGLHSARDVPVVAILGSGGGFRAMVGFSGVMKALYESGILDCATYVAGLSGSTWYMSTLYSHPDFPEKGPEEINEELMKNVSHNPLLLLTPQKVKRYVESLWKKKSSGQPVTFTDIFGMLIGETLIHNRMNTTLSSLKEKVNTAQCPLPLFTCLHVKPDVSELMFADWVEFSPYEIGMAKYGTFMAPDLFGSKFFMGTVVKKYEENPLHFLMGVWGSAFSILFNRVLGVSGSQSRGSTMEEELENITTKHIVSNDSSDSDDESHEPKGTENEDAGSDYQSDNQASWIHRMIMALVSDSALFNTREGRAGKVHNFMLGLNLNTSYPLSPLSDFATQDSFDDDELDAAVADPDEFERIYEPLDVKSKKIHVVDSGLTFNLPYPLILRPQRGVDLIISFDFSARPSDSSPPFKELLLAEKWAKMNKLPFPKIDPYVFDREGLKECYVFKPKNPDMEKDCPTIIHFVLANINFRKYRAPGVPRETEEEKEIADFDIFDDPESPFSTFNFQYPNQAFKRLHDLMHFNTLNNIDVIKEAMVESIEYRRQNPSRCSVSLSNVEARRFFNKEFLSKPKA
Assay: Coumarine Assay
Type: biochemical
Details: 60 μM 7-hydroxycoumarinyl 6-heptenoate substrate, 4 μg cPLA2, pH 7.5, fluorescence ex 360 nm / em 460 nm; read-out: Coumarin IC50

Compound | IC50
O=C(O)c1ccc(OCCc2c(CCNS(=O)(=O)CCn3cccn3)n(C(c3ccccc3)c3ccccc3)c3ccc(Cl)cc23)cc1 [Example 88, 4-(2-{1-Benzhydryl-5-chloro-2-[2-(2-pyrazol-1-yl-ethanesulfonylamino)-ethyl]-1H-indol-3-yl}-ethoxy)-benzoic acid] | < 7400 nM
O=C(O)c1ccc(OCCc2c(CCNS(=O)(=O)CCN3CCSCC3)n(C(c3ccccc3)c3ccccc3)c3ccc(Cl)cc23)cc1 [Example 116, 4-(2-{1-Benzhydryl-5-chloro-2-[2-(2-thiomorpholin-4-yl-ethanesulfonylamino)-ethyl]-1H-indol-3-yl}ethoxy)-benzoic acid] | 1200 nM
O=C(O)c1ccc(OCCc2c(CCNS(=O)(=O)CCn3ccnc3)n(C(c3ccccc3)c3ccccc3)c3ccc(Cl)cc23)cc1 [Example 125, 4-(2-{1-Benzhydryl-5-chloro-2-[2-(2-imidazol-1-yl-ethanesulfonylamino)-ethyl]-1H-indol-3-yl}-ethoxy)-benzoic acid] | 1400 nM

The remaining lines, values ahead:

IC50 | Compound
370 nM | O=C(O)c1ccc(OCCc2c(CCNS(=O)(=O)CC3CCCCC3)n(C(c3ccccc3)c3ccccc3)c3ccc(Cl)cc23)cc1 [Example 53, 4-{2-[1-benzhydryl-5-chloro-2-(2-{[(cyclohexylmethyl)sulfonyl]amino}ethyl)-1H-indol-3-yl]ethoxy}benzoic acid]
1100 nM | O=C(O)c1ccc(OCCc2c(CCNS(=O)(=O)CCN3CCSC3)n(C(c3ccccc3)c3ccccc3)c3ccc(Cl)cc23)cc1 [Example 98, 4-(2-{1-benzhydryl-5-chloro-2-[2-({[2-(1,3-thiazolidin-3-yl)ethyl]sulfonyl}amino)ethyl]-1H-indol-3-yl}ethoxy)benzoic acid]
